One substance from US20210395311A1, “CYCLIC PEPTIDE DIMERS” (New York University, priority 2019, published 2021) can be followed below.

The series in a line: Solubility of the synthetic peptides. It counts as physicochemical. The note with it: 10% acetonitrile in water was used to dissolve. The text has this:
Peptide 324822 was not the precursor of peptide 326573. It was synthesized separately. For 324822, protected linear peptide was cleaved from resin and cyclized in DMF following the above procedure. After removing the protecting groups, the peptide was isolated by RP-HPLC purification. Both peptides were not soluble in 100% aqueous solution. 10% acetonitrile in water was used to dissolve the peptides.

As for “c (Gly-Met (O)-Met (O)-Cys-Val-Thr-His-Cys-Asn-Gly (SEQ ID NO:1, where the methionine residues are oxidized)) [compound 326573]”, the “solubility in 100% aqueous solution” value is “not soluble”.
